Measured values taken from ChEMBL document CHEMBL5120795, “Small-Molecule Inhibitors of Tankyrases as Prospective Therapeutics for Cancer” (J Med Chem, 2022).

The chains behind the UniProt entries cited, without tags or fusion partners. Where a name states a change or a piece, a line headed by the entry shows the natural chain unless it says otherwise.
UniProt O88554: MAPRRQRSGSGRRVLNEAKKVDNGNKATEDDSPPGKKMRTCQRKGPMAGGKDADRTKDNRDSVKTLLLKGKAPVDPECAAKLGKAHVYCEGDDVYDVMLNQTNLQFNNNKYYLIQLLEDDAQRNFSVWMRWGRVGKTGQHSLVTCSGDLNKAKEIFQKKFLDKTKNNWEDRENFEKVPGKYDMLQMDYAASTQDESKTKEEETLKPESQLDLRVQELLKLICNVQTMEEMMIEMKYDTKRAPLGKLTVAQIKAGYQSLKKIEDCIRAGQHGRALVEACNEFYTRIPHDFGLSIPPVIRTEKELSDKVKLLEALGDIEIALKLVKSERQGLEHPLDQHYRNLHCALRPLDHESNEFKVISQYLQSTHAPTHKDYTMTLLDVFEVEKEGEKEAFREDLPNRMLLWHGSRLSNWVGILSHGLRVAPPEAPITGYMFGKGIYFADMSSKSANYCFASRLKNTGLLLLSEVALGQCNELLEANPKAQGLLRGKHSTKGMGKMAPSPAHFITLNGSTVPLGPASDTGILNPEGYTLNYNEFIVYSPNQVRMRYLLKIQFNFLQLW

Target: Poly [ADP-ribose] polymerase 2 (Mus musculus, UniProt O88554)

- IC50: 1 nM
Structure (SMILES): O=c1[nH]nc2c3c(cccc13)N=C(CN1Cc3ccccc3C1)N2 [2X-121]
